PMC5651683 (The Biochemical journal, 2017)

Biological target: His6-Munc18a (rat, UniProt P61765 1-594)
Assay: pull-down

binding result: binds
B1: syntaxin4, full-length, liposome-anchored (natural protein)
chain: MRDRTHELRQGDNISDDEDEVRVALVVHSGAARLSSPDDEFFQKVQTIRQTMAKLESKVRELEKQQVTILATPLPEESMKQGLQNLREEIKQLGREVRAQLKAIEPQKEEADENYNSVNTRMKKTQHGVLSQQFVELINKCNSMQSEYREKNVERIRRQLKITNAGMVSDEELEQMLDSGQSEVFVSNILKDTQVTRQALNEISARHSEIQQLERSIRELHEIFTFLATEVEMQGEMINRIEKNILSSADYVERGQEHVKIALENQKKARKKKVMIAICVSVTVLILAVIIGITITVG
